ChEMBL document CHEMBL4196131 (J Med Chem, 2018)
Values belong to the molecule of their own block, whether it stands above or below them.

Amino acid sequences for entries named in this document (tags omitted).
UniProt Q92731, whole entry: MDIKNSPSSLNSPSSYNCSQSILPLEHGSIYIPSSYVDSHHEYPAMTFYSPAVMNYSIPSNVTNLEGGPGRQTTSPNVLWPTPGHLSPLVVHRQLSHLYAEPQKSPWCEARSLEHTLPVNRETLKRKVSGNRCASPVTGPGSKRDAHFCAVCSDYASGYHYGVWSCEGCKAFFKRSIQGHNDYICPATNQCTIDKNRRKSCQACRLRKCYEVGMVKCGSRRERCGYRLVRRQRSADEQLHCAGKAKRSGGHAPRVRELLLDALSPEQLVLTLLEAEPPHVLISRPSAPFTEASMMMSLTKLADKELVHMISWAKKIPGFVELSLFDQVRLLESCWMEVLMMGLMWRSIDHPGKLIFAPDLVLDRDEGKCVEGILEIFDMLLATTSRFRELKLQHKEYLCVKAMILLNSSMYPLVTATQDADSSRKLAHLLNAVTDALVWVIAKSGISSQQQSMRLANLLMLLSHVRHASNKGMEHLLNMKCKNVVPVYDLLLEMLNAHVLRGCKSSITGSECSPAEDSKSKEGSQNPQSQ
UniProt P03372, whole entry: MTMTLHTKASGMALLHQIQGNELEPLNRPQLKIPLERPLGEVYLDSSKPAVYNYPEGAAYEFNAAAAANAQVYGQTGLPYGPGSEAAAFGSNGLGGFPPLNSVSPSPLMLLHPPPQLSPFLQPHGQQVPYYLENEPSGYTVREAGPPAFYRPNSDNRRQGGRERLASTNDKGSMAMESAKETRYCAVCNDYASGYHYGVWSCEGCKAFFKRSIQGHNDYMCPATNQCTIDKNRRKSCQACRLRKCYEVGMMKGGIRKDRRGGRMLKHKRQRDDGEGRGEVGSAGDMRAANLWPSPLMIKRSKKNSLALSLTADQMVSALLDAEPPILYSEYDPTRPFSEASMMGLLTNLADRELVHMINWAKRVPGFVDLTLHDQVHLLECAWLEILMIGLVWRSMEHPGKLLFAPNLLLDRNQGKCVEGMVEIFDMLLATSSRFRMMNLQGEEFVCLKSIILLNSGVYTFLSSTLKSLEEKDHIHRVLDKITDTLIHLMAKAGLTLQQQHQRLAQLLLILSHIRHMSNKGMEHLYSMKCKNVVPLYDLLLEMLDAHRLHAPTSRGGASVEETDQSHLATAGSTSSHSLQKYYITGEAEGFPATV

Columns and labels:
Format in all cases: cell-based
[1] = Inhibition of NFkappaB in mouse RAW 264.7 cells assessed as reduction in LPS induced NO production after 24 hrs by Griess assay; settings: RAW264.7, 24 h
Estrogen receptor beta = Estrogen receptor beta (Homo sapiens, UniProt Q92731); assay: Agonist activity at human ERbeta expressed in HEK293T cells after 24 hrs by ERE-based dual luciferase reporter gene assay
Estrogen receptor [2] = biological target: T1, Estrogen receptor (Homo sapiens, UniProt P03372); assay: Agonist activity at human ERalpha expressed in HEK293T cells after 24 hrs by ERE-based dual luciferase reporter gene assay relative to E2
Estrogen receptor [3] = biological target: T1, Estrogen receptor; assay: Antagonist activity at human ERalpha expressed in HEK293T cells after 24 hrs by ERE-based dual luciferase reporter gene assay relative to E2

IC50 [1]: 15.5 µM
SMILES: O=S(=O)(Oc1ccc(O)cc1)C1CC2OC1C(c1ccc(/C=C/c3cc(O)cc(O)c3)cc1)=C2c1ccc(O)cc1 (centres undefined)

EC50 (Estrogen receptor beta): 0.139 µM
SMILES: COc1cc(/C=C/c2cccc(OS(=O)(=O)C3CC4OC3C(c3ccc(O)cc3)=C4c3ccc(O)cc3)c2)cc(OC)c1 (centres undefined)

Efficacy (Estrogen receptor [2]): 58%
Efficacy (Estrogen receptor [3]): 69%
SMILES: O=S(=O)(Oc1ccccc1)[C@H]1C[C@@H]2O[C@@H]1C(c1ccc(O)cc1)=C2c1ccc(O)cc1 (relative stereo)
